Key:
[1] = tested on: HeLa; assay: Cell permeability in human HeLa cells assessed as glucocorticoid receptor-dependent induction of luciferase activity after 40 hrs by GAL4-responsive luciferase reporter gene assay
[2] = biological target: T1, Glucocorticoid receptor (Homo sapiens, UniProt P04150)
T1 sequence (P04150 whole entry): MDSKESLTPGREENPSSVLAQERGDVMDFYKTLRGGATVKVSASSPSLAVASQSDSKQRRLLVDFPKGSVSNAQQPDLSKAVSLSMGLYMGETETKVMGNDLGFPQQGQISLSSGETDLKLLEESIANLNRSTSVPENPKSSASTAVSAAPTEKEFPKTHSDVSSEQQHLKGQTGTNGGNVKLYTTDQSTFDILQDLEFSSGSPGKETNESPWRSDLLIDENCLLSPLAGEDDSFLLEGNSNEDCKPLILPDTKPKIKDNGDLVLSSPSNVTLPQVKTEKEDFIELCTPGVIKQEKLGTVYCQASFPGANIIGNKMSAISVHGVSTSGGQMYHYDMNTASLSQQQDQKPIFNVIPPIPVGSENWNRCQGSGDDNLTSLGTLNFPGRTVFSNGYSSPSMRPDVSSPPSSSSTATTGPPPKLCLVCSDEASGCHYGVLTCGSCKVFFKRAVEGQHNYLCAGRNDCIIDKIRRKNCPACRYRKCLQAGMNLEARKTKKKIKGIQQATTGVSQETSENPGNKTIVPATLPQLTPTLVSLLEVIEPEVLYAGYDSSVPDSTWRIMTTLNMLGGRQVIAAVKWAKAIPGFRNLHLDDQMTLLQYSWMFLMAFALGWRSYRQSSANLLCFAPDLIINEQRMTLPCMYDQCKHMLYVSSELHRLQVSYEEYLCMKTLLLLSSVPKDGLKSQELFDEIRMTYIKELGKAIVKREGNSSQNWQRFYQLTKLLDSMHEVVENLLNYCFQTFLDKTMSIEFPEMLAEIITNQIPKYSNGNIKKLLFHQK

| Structure (SMILES) | EC50 [1] [nM] | IC50 [2] [nM] |
| --- | --- | --- |
| CC(=O)NCCCN(C)CCCNC(=S)NCCSCC(=O)[C@@]1(O)[C@H](C)C[C@H]2[C@@H]3CCC4=CC(=O)C=C[C@]4(C)[C@@]3(F)[C@@H](O)C[C@@]21C | 800 | 8.3 |
| C[C@@H]1C[C@H]2[C@@H]3CCC4=CC(=O)C=C[C@]4(C)[C@@]3(F)[C@@H](O)C[C@]2(C)[C@@]1(O)C(=O)CSCCNC(=S)NCCCN(C)CCCNC(=O)CCNC(=O)c1cc(NC(=O)c2cc(NC(=O)c3cc(NC(=O)c4cc(NC(=O)CCCNC(=O)c5cc(NC(=O)c6cc(NC(=O)c7cc(NC(=O)c8nccn8C)cn7C)cn6C)cn5C)cn4C)cn3C)cn2C)cn1C | – | 14 |

— ChEMBL document CHEMBL1158488, “Investigation of the relative cellular permeability of DNA-binding pyrrole-imidazole polyamides” (J Med Chem, 2009)
